Key:
[1] = Reverse phase and cation exchange chromatography of supernatant of rhBMP-2 precipitated with Na2SO4; assay type: physicochemical
Protocol: Reverse Phase and Cation Exchange Chromatography were performed on supernatant obtained from rhBMP-2 precipitated with 5 mM and 18 mM Na2SO4. The supernatant was separated from the pellet by microcentrifugation at ˜14,000 RPM for 30 minutes at about 2° C. to 8° C.
The six dimeric isoforms of rhBMP-2 were separated by cation exchange chromatography (FIG. 1). […] The increase in optical density became apparent at about a range of 3 mM to 4 mM Na2SO4. The amount of precipitated material was determined by reverse phase chromatography by comparing the protein concentration in the starting material with that in the supernatant of the precipitated material. At 5 mM Na2SO4, the protein concentration had decreased by 63% of the original amount. At 18 mM Na2SO4 the protein concentration had decreased by 81% of the initial concentration. The supernatants of these precipitates were analyzed by cation exchange chromatography.

[2] = Solubility profile of rhBMP-2 (salt concentration, pH); assay type: physicochemical
Description: rhBMP-2 has a unique solubility profile.

Substance: rhBMP-2: Recombinant human BMP-2 produced in Cho cells, a mixture of six dimeric isoforms
- decrease of protein concentration in supernatant vs original amount ([1]; 5 mM Na2SO4): 63%
- decrease of protein concentration in supernatant vs initial concentration ([1]; 18 mM Na2SO4): 81%
- solubility profile ([2]; dependence on salt concentration and pH): most soluble at low salt concentrations and low pH
- ionic strength above which it remains soluble at higher pH values ([2]; higher pH values, increased salt concentration): > 0.15 M

From patent US7638495B2, “Peptides as solubilizing excipients for transforming growth factor β proteins” (Wyeth, priority 2002, dated 2009)
